In patent US9174983B2, “Pyrroloquinoline quinone disodium salt crystal and method for producing the same” (MITSUBISHI GAS CHEMICAL COMPANY, INC., priority 2011, dated 2015):

Settings: 30° C., a half day or more; absorbed water and turned to a form similar to the precursor crystal

## pyrroloquinoline quinone disodium crystal [Crystalline Form 2]
  stability of the crystal on standing: unstable
